Values quoted from earlier work, collected in US5811073A, “Method for radioisotopic detection and localization of inflammation in a host” (President and Fellows of Harvard College, priority 1995, dated 1998).

Tested on: sterile and bacterial inflammation
Details: i.v., 200-300 μCi gallium-67 citrate, 300-500 μCi ^99m Tc-human serum albumin, 100-150 μCi ^111 In-IgG or ^125 I-IgG; cited from earlier work

For “^99m Tc-human serum albumin: ^99m Tc-human serum albumin (Medi-Physic, Richmond, Calif.)”, the “time of maximum target to background tissue ratio for image intensity” value is given as 3 h.
